Test results from ChEMBL document CHEMBL1134932, “Bridged bicyclic vasopressin receptor antagonists with V(2)-selective or dual V(1a)/V(2) activity” (Bioorg Med Chem Lett, 2002).

Chains of the proteins cited; added tags and fusions are not shown.
UniProt P30518, whole entry: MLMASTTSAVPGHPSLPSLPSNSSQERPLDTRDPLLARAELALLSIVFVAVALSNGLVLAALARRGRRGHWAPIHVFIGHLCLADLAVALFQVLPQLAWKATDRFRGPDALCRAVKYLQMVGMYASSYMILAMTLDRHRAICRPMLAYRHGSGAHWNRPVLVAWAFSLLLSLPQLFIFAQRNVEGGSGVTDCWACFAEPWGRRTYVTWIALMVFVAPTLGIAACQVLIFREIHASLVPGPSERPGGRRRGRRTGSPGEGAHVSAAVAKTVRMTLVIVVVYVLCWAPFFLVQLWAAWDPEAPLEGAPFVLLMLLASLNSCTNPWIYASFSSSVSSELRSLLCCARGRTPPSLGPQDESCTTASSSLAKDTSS

Target: Vasopressin V2 receptor (Homo sapiens, UniProt P30518)
Assay: Inhibition of [3H]Arg-vasopressin binding to recombinant human vasopressin V2 receptor

## O=C(Nc1ccc(C(=O)N2CC3C4CCC(CC4)N3Cc3ccccc32)cc1)c1ccccc1-c1ccccc1 (stereo unspecified)
  IC50: 6 nM
